Assay results taken from BindingDB's records for PubMed 9262370 (Neurogen, 1997).
“And” between values parts separate entries of the source, which are not always exact repeats. Equal values may be shown once.

Sequences of proteins named here, by UniProt entry; tags and fusion partners are left off.
UniProt P21917, whole entry: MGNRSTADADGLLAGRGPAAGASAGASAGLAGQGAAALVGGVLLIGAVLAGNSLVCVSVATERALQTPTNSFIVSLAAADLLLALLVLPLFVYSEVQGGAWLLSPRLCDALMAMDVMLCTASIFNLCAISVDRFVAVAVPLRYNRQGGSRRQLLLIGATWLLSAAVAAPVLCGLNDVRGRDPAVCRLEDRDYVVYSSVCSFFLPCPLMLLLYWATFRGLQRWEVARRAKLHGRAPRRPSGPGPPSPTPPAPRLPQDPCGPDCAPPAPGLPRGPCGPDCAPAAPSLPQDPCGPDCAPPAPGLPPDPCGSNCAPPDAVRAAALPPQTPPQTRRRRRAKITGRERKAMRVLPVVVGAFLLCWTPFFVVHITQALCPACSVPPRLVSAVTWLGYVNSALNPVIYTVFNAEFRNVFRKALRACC

Target: D(4) dopamine receptor (Homo sapiens, UniProt P21917)

## CCN1CCCC1CNC(=O)c1cc(S(N)(=O)=O)ccc1OC (stereo unspecified) [N-[(1-ethylpyrrolidin-2-yl)methyl]-2-methoxy-5-sulfamoylbenzamide]
  Ki: 800 nM and 1300 nM
